{"sequences": {"note": "Protein sequences, listed by entry. Tags and fused reporters are not part of them.", "UniProt P21796, whole entry, species assumed": "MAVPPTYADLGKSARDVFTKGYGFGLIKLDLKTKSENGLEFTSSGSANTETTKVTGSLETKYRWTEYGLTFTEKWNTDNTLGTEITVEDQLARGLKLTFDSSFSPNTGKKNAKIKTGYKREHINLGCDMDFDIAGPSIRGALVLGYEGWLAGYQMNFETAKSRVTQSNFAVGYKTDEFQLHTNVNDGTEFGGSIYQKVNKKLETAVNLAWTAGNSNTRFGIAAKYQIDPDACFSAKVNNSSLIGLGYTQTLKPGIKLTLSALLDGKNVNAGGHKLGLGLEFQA"}, "source": "patent US20220202743A1", "about": "“PHARMACEUTICAL COMPOSITION FOR PREVENTING OR TREATING DEGENERATIVE BRAIN DISEASE USING AUTOPHAGY ACTIVATION” (VASTHERA CO. LTD., priority 2019, published 2022)", "key": {"MEFs": {"tested_on": "MEFs", "conditions": "FIG. 3H"}, "VDAC1": {"molecular_target": "VDAC1 (Homo sapiens, UniProt P21796)", "conditions": "DARTS, pronase 20 minutes or more, FIG. 3B"}}, "data": [{"smiles": "CN[C@H]1CC[C@@H](c2ccc(Cl)c(Cl)c2)c2ccccc21", "note": "[sertraline]", "values": [{"measurement": "cell proliferation maintained in MEFs without VDAC1", "setting": "MEFs; VDAC1−/− MEFs, 72nd hour, about 10 μM", "result": "≥ 50", "unit": "%"}, {"measurement": "cell proliferation of wild-type MEFs", "setting": "MEFs; wild-type MEFs", "result": "continuously inhibited"}, {"measurement": "stability of VDAC1 against pronase at nanomolecule concentration", "setting": "VDAC1", "result": "not VDAC1"}]}]}
